In this assay the target is Adenosine receptor A2a (Rattus norvegicus, UniProt P30543). The assay can be described thus: Binding affinity against Adenosine A2A receptor by using [3H]CGS-21680 as radioligand.

Protein sequences, listed by entry. Tags and fused reporters are not part of them.
UniProt P30543, whole entry: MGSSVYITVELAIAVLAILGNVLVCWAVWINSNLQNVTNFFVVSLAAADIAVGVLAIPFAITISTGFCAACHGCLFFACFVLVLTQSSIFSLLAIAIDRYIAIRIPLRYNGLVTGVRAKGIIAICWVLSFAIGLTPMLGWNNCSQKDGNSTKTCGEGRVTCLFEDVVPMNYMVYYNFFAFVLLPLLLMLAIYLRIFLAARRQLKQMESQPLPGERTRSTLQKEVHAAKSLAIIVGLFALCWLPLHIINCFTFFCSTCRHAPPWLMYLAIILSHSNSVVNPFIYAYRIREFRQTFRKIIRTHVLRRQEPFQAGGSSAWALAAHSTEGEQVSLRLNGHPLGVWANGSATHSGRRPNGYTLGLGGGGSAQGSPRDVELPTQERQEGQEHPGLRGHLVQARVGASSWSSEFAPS

In the case of `C[C@H](Cc1ccccc1)Nc1ncnc2c1ncn2[C@@H]1O[C@H](CO)[C@@H](O)[C@H]1O` [(R)-PIA], the Ki (in general, the equilibrium dissociation constant of an inhibitor or competing ligand from its target) was determined as 0.14 µM.
